Reference: patent US20190015423A1, “REGULATION OF GENE EXPRESSION BY MODULATING PRIMARY CILIA LENGTH” (THE TRUSTEES OF COLUMBIA UNIVERSITY IN THE CITY OF NEW YORK, priority 2016, published 2019)

System: MLO-Y4 osteocytes
Assay: High-throughput drug screening of primary cilia length and incidence
Assay type: cell-based
Procedure: MLO-Y4 osteocytes were maintained on collagen I-coated dishes in MEMα (Life_Technologies) supplemented with 5% fetal bovine serum (FBS), 5% calf serum (CS), and 1% penicillin/streptomycin (P/S) at 37° C. and 5% CO2. Osteocytes were then seeded onto 384-well collagen-coated plates for 72 hours before fixation. […] These libraries include Tocris, Sigma LOPAC, Selleck Chemical, Prestwick, and Spectrum commercially available compound libraries. All cell seeding and plate handling was performed with the Perkin Elmer cell:explorer workstation.
Cells were fixed in 4% paraformaldehyde and permeabilized with 0.1% Triton-X 100 (Sigma). 10% goat serum (vendor) was used for blocking. Cilia were stained using a monoclonal antibody against acetylated α-tubulin (1:20) from a C3B9 hybridoma cell line, and visualized with A F488 (1:1000, ThermoFisher). Nuclei were visualized with Hoechst. Cells were imaged using a GE INCell 2000 high-throughput imager at 40× magnification. 4 fields of view were taken per well.
Each pair of nuclei and cilia images was first analyzed individually, then the entire population was examined to evaluate each compound's effect on cilia length and incidence. […] The augmentation of the algorithm incorporates thresholding for noise removal based on signal intensity and object size, nuclei dilation to exclude non-cellular artifacts, as well as skeletonization of cilia to quantify length. […]

Row | Structure (SMILES) | Average Length SD Away | Average Incidence SD Away
1 | O=[N+]([O-])c1ccc(-c2nc(-c3ccncc3)c(-c3ccc(F)cc3)[nH]2)cc1 [PD 169316] | 3.454 SD | 
2 | C[C@@H](O)[C@H]1C(=O)N2C(C(=O)OCOC(=O)C(C)(C)C)=C(SC3CN(C4=NCCS4)C3)[C@H](C)[C@H]12 [Tebipenem pivoxil (L-084), Tebipenem pivoxil] |  | 1.857 SD
